These results are taken from US8877944B2, “3-oxo-2,3-dihydro-1H-isoindole-4-carboxamides as PARP inhibitors” (Nerviano Medical Sciences S.R.L., priority 2009, dated 2014).

Protein sequences, listed by entry. Tags and fused reporters are not part of them. Lines headed by an entry give the natural chain unless they say otherwise; changes in a name come on top.
UniProt Q9UGN5: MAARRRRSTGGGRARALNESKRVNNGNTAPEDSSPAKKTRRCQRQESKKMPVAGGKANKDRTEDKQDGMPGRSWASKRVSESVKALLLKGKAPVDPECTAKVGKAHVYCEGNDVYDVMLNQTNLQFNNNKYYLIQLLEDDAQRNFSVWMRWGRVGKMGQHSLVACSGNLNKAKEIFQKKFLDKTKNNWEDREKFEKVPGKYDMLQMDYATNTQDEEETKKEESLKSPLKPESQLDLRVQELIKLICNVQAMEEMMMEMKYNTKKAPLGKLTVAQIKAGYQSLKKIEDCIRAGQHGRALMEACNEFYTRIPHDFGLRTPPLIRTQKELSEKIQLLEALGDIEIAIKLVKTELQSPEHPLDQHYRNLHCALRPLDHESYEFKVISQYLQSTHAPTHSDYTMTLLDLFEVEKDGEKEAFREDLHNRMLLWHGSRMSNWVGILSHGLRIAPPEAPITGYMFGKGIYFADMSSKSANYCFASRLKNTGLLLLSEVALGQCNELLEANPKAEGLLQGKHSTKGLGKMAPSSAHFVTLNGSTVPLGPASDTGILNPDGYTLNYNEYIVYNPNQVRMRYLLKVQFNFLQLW

Structures are written as SMILES. A value given as a limit tells only on which side of the number the result lay.

The test has as its target PARP-2 FL (Homo sapiens (Human), UniProt Q9UGN5). In words: Fluorescence polarization probe displacement assay, PARP-2. The test is classed as binding. Particulars: compound P1 as the probe, 250 nM PARP-2. In general terms: Fluorescence polarisation rises when a labelled molecule tumbles more slowly, as on binding a larger partner.

Compound `CN(C)CC(=O)Nc1ccc2[nH]c(=O)c3ccccc3c2c1` [PJ34, N-(6-oxo-5,6-dihydro-phenanthridin-2-yl)-N,N-dimethylacetamide, reference compound] came in with a Kd of under 30 nM.

What is called Kd is the constant that tells how readily two partners part at equilibrium. The low end stands for higher affinity, the high end for lower affinity.
